The target in the assay is T1, control Fc.
T1 construct: also called control IgG Fc; human IgG1 Fc
As to the kind of experiment: Biacore (SPR): control Fc in place of CD24Fc, Siglec-10Fc as analyte; value printed under the KD line, no curve is drawn for the control. The text has this: To measure the interaction between CD24Fc and Siglec 10, we immobilized CD24Fc onto a CHIP and used Biacore to measure the binding of different concentrations of Siglec-10Fc. […] The interaction between CD24Fc and HMGB1 was confirmed by pull down experiments using CD24Fc-bound protein G beads followed by Western blot with either anti-IgG or anti-HMGB1. […] To determine whether CD24Fc is an agonist of Siglec G, the mouse counterpart of human Siglec 10, we stimulated CD24^{-/-} spleen cells with CD24Fc, control Fc or vehicle (PBS) control for 30 minutes. Siglec G was then immunoprecipitated and probed with anti-phospho-tyrosine or anti-SHP-1.
For orientation: SPR reads the build-up and loss of mass on a sensor chip optically.

B1: Siglec-10Fc (Fc fusion, human, UniProt Q96LC7 17-546, looked up)
chain: MDGRFWIRVQESVMVPEGLCISVPCSFSYPRQDWTGSTPAYGYWFKAVTETTKGAPVATNHQSREVEMSTRGRFQLTGDPAKGNCSLVIRDAQMQDESQYFFRVERGSYVRYNFMNDGFFLKVTALTQKPDVYIPETLEPGQPVTVICVFNWAFEECPPPSFSWTGAALSSQGTKPTTSHFSVLSFTPRPQDHNTDLTCHVDFSRKGVSAQRTVRLRVAYAPRDLVISISRDNTPALEPQPQGNVPYLEAQKGQFLRLLCAADSQPPATLSWVLQNRVLSSSHPWGPRPLGLELPGVKAGDSGRYTCRAENRLGSQQRALDLSVQYPPENLRVMVSQANRTVLENLGNGTSLPVLEGQSLCLVCVTHSSPPARLSWTQRGQVLSPSQPSDPGVLELPRVQVEHEGEFTCHARHPLGSQHVSLSLSVHYSPKLLGPSCSWEAEGLHCSCSSQASPAPSLRWWLGEELLEGNSSQDSFEVTPSSAGPWANSSLSLHGGLSSGLRLRCEAWNVHGAQSGSILQLPDKKGLIST
notes: It was the analyte in the Biacore assay; not shown: Fc part of Siglec-10Fc
The Kd is a measure of binding affinity in units of concentration. A higher Kd goes with lower affinity. As for B1, binding was characterised by a dissociation constant (Kd) of 16.2 µM.
